{"sequences": {"note": "The chains behind the UniProt entries cited, without tags or fusion partners.", "UniProt P35462, whole entry": "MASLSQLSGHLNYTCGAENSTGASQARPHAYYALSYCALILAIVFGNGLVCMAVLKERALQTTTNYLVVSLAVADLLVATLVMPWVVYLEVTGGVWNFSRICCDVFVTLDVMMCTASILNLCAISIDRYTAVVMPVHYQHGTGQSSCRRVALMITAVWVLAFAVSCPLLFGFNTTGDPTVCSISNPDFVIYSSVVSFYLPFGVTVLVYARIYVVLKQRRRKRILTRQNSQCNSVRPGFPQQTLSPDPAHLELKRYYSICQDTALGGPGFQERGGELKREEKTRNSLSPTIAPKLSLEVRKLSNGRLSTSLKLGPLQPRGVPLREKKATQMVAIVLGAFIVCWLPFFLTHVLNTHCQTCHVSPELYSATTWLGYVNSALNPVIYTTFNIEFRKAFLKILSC"}, "source": "PubChem BioAssay AID652048", "about": "(National Center for Advancing Translational Sciences (NCATS), 2013)", "note": "Where “and” joins values, the source holds several entries; their conditions need not be identical. Equal entries are not always repeated. The list shows a part of the results, in another mix than the full data. Calls of active or inactive are those of the source. Cut-off read from the data, not from the text of the source: active = max activation above about 30%; inactive = the rest."}
{"molecular_target": "D(3) dopamine receptor (Homo sapiens) (UniProt P35462)", "assay": "qHTS of D3 Dopamine Receptor Agonist: qHTS; note: 0% is about no effect", "conditions": "D3R DiscoveRx beta-arrestin cells, luminescence, 90 min; stronger effect = higher value", "excerpt": "D3 DARs represent a very important target for the treatment of several neuropsychiatric disorders. Indeed, one of the most promising therapeutic applications for the D3 DAR is in the area of addiction and related disorders. […] These findings have been observed with a number of addictive substances including cocaine, amphetamine, nicotine, and alcohol. […] Antagonism of the D3 DAR may also be therapeutic in the treatment of schizophrenia or psychosis. […] Since the D3 DAR is expressed in areas of the CNS associated with the control of mood and emotion, it has been hypothesized that selective antagonism of the D3 DAR may be effective in treating psychosis without inducing the motor side effects typically seen with D2 DAR antagonists.\nThis part of the project aims to discover novel agonist.\nNIH Chemical Genomics Center [NCGC]\nNIH Molecular Libraries Probe Centers Network [MLPCN]\nAssay Submitter (PI): David Sibley, NINDS\nFreshly passaged cells are plated in 1536 well white, solid bottom plates at a density of 1500 cells/well in 3microl of complete media. After an overnight incubation at 37 degrees C in 5% CO2, cells are loaded with 23nl of test compound from the compound library (as well as dopamine controls) using a 1536 pintool and incubated at 37 degrees C for 90 minutes. Two microliters of DiscoveRx reagent is then added to all cells, and they are incubated for an additional 30 - 60 minutes at room temperature. Following incubation, luminescence is measured on a ViewLux CCD-based luminometer reader using a 20 sec exposure time."}
{"smiles": "Cc1cc(C)cc(OP(C)(=O)Nc2cccc(C(F)(F)F)c2)c1", "note": "(configuration not stated)", "max activation": "inactive: -6.73%"}
{"smiles": "COc1ccc(OP(C)(=O)Nc2ccccc2Br)cc1", "note": "(configuration not stated)", "max activation": "inactive: 2.84%"}
{"smiles": "COc1ccccc1OP(C)(=O)Nc1ccc(C)c(C)c1", "note": "(configuration not stated)", "max activation": "inactive: -2.31%"}
{"smiles": "CP(=O)(OCCOc1ccccc1)OCCOc1ccccc1", "max activation": "inactive: 0.893%"}
{"smiles": "CCCCCCCCCCCCCCCC1C[N+](C)(C)CCOP(C)(=O)O1", "note": "(configuration not stated)", "max activation": "inactive: -19.5%"}
{"smiles": "CP(=O)(Nc1ccc(Cl)cc1Cl)Oc1ccccc1", "note": "(configuration not stated)", "max activation": "inactive: -15.3%"}
{"smiles": "COc1ccccc1OP(C)(=O)Nc1ccc(Br)cc1", "note": "(configuration not stated)", "max activation": "inactive: 5.14%"}
{"smiles": "CN(C)CCOC(=O)C(O)(c1ccccc1)C1CCCC1", "note": "(configuration not stated)", "max activation": "inactive: -29.3%"}
{"smiles": "COc1ccc(OP(C)(=O)Nc2ccccn2)cc1", "note": "(configuration not stated)", "max activation": "inactive: 0.541%"}
{"smiles": "O=[N+]([O-])c1cc([N+](=O)[O-])c(Nc2ccccn2)c([N+](=O)[O-])c1", "max activation": "inactive: -20.3%"}
{"smiles": "Cc1c(NP(C)(=O)Oc2ccc(C(C)C)cc2)c(=O)n(-c2ccccc2)n1C", "note": "(configuration not stated)", "max activation": "inactive: 0.787%"}
{"smiles": "CCc1ccc(OP(C)(=O)O)cc1", "max activation": "inactive: -3.4%"}
{"smiles": "COc1ccccc1OP(C)(=O)Nc1ccc(C)cc1C", "note": "(configuration not stated)", "max activation": "inactive: 0.15%"}
{"smiles": "CP(=O)(Nc1ccccn1)Oc1ccccc1", "note": "(configuration not stated)", "max activation": "inactive: -1.24%"}
{"smiles": "COc1ccc(OP(C)(=O)Nc2ccc(Br)cc2)cc1", "note": "(configuration not stated)", "max activation": "inactive: 2.34%"}
{"smiles": "CCN(CC)CC(O)COC(=O)C(O)(c1ccccc1)C1CCCCC1", "note": "(configuration not stated)", "max activation": "inactive: -12.2%"}
{"smiles": "CCc1ccc(OP(C)(=O)Nc2cccnc2)cc1", "note": "(configuration not stated)", "max activation": "inactive: 0.206%"}
{"smiles": "CP(=O)(Oc1ccccc1)N1CCOC1=O", "note": "(configuration not stated)", "max activation": "inactive: -0.451%"}
{"smiles": "O=C(OCCCN1CCCC1)C(O)(c1ccccc1)C1CCCCC1", "note": "(configuration not stated)", "max activation": "inactive: -37.2%"}
{"smiles": "OCCSCCO", "max activation": "inactive: 9.59%"}
{"smiles": "COc1ccccc1OP(C)(=O)Nc1c(C)n(C)n(-c2ccccc2)c1=O", "note": "(configuration not stated)", "max activation": "inactive: -0.865%"}
{"smiles": "CP(=O)(Nc1ccc(Cl)cc1)Oc1ccc(F)cc1", "note": "(configuration not stated)", "max activation": "inactive: -0.555%"}
{"smiles": "CC(C)(C)c1ccc(OP(C)(=O)O)cc1", "max activation": "inactive: -4.2%"}
{"smiles": "COc1ccccc1OP(C)(=O)Nc1ccccc1Br", "note": "(configuration not stated)", "max activation": "inactive: 2.43%"}
{"smiles": "CN(C)C(=O)c1c([N+](=O)[O-])cc([N+](=O)[O-])cc1[N+](=O)[O-]", "max activation": "inactive: -24.8%"}
{"smiles": "Nc1ccc2c(ccc3cccnc32)n1.O=[N+]([O-])c1cc([N+](=O)[O-])c(O)c([N+](=O)[O-])c1", "max activation": "inactive: 3.67%"}
{"smiles": "CP(=O)(OC12CC3CC(CC(C3)C1)C2)OC12CC3CC(CC(C3)C1)C2", "max activation": "inactive: 15.1%"}
{"smiles": "CCOC(=O)c1ccc(NP(C)(=O)Oc2ccc(Cl)cc2)cc1", "note": "(configuration not stated)", "max activation": "inactive: 6.46%"}
{"smiles": "CC(C)OP(=O)(F)OC(C)C", "max activation": "inactive: 7.61%"}
{"smiles": "COc1ccc(OP(C)(=O)Nc2cccc(Br)c2)cc1", "note": "(configuration not stated)", "max activation": "inactive: -2.36%"}
{"smiles": "COc1ccc(NP(C)(=O)Oc2ccccc2OC)cc1", "note": "(configuration not stated)", "max activation": "inactive: 0.438%"}
{"smiles": "CN(C)CCOC(=O)C(O)(c1ccccc1)C1CCCCC1", "note": "(configuration not stated)", "max activation": "inactive: -18.7%"}
{"smiles": "Cc1cc(-c2cccc3ccccc23)c(C)cn1.O=[N+]([O-])c1cc([N+](=O)[O-])c(O)c([N+](=O)[O-])c1", "max activation": "inactive: -24.7%"}
{"smiles": "O=[N+]([O-])c1ccc(OP2(=O)COCCO2)cc1", "note": "(configuration not stated)", "max activation": "inactive: 1.75%"}
{"smiles": "Cc1c(C(c2ccc3c(c2)OCO3)c2c(C)n(C)n(-c3ccccc3)c2=O)c(=O)n(-c2ccccc2)n1C.O=[N+]([O-])c1cc([N+](=O)[O-])c(O)c([N+](=O)[O-])c1", "max activation": "inactive: -11.7%"}
{"smiles": "C/C1=C2N=C(/C=C3N=C(/C(C)=C4\\[N-][C@@](C)([C@@H]5N=C1[C@](C)(CCC(=O)NC[C@@H](C)OP(=O)([O-])O[C@H]1[C@@H](O)[C@@H](n6cnc7cc(C)c(C)cc76)O[C@@H]1CO)[C@H]5CC(N)=O)[C@@](C)(CC(N)=O)[C@@H]4CCC(N)=O)[C@@](C)(CC(N)=O)[C@@H]\\3CCC(N)=O)C(C)(C)[C@@H]/2CCC(N)=O.[C-]#N.[Co+3]", "max activation": "inactive: 3.33%"}
{"smiles": "CP(=O)(Nc1ccc(SC(F)(F)F)cc1)Oc1ccc(F)cc1", "note": "(configuration not stated)", "max activation": "inactive: -11.1%"}
{"smiles": "CCOP(C)(=S)SCC(=O)NC(C)(CC)C(=O)O", "note": "(configuration not stated)", "max activation": "inactive: -1%"}
{"smiles": "CP(=O)(Nc1ccc2c(c1)OCCO2)Oc1ccccc1", "note": "(configuration not stated)", "max activation": "inactive: -13.5%"}
{"smiles": "O=[N+]([O-])c1cc([N+](=O)[O-])c(C(F)(F)F)c([N+](=O)[O-])c1O", "max activation": "inactive: -7.73%"}
{"smiles": "Cc1ccccc1NP(C)(=O)Nc1ccccc1C", "max activation": "inactive: 5.97%"}
{"smiles": "CC(C)c1ccc(OP(C)(=O)Nc2ccc(SC(F)(F)F)cc2)cc1", "note": "(configuration not stated)", "max activation": "inactive: 15.9%"}
{"smiles": "CP(=O)(Nc1ccccc1F)Oc1ccccc1", "note": "(configuration not stated)", "max activation": "inactive: 2.95%"}
{"smiles": "O=C(OCCN1CCN(CCOCc2ccccc2)CC1)C(O)(c1ccccc1)c1ccccc1", "max activation": "active: 34%"}
{"smiles": "CCOP(=O)(CC)Oc1ccc([N+](=O)[O-])cc1", "note": "(configuration not stated)", "max activation": "inactive: -8.58%"}
{"smiles": "Cc1cccc([N+](=O)[O-])c1[N+](=O)[O-]", "max activation": "inactive: 4.71%"}
{"smiles": "COc1ccc(OP(C)(=O)Nc2ccc(SC(F)(F)F)cc2)cc1", "note": "(configuration not stated)", "max activation": "inactive: -3.89%"}
{"smiles": "CCOC(=O)c1ccc(NP(C)(=O)Oc2ccc(F)cc2)cc1", "note": "(configuration not stated)", "max activation": "inactive: 3.86%"}
{"smiles": "CCN(CC)CCCOC(=O)C(O)(c1ccccc1)C1CCCCC1", "note": "(configuration not stated)", "max activation": "inactive: -6.3%"}
{"smiles": "[As+3].[As+3].[O-2].[O-2].[O-2]", "max activation": "inactive: 5.86%"}
{"smiles": "Cc1c([N+](=O)[O-])cc([N+](=O)[O-])c(Br)c1[N+](=O)[O-]", "max activation": "inactive: -0.919%"}
{"smiles": "CCCCCOc1ccc(NP(C)(=O)Oc2ccc(Cl)cc2Cl)cc1", "note": "(configuration not stated)", "max activation": "inactive: 3.23%"}
{"smiles": "CP(=O)(Nc1ccccc1)Oc1ccc(F)cc1", "note": "(configuration not stated)", "max activation": "inactive: 1.65%"}
{"smiles": "O=[N+]([O-])c1cccc([N+](=O)[O-])c1", "max activation": "inactive: -0.97% and inactive: -6.44%"}
{"smiles": "O=[N+]([O-])OCC(CO[N+](=O)[O-])(CO[N+](=O)[O-])CO[N+](=O)[O-]", "max activation": "inactive: 0.362%"}
{"smiles": "CC1=NCCc2c1[nH]c1ccccc21.O=[N+]([O-])c1cc([N+](=O)[O-])c(O)c([N+](=O)[O-])c1", "max activation": "inactive: -6.64%"}
{"smiles": "COc1ccccc1OP(C)(=O)Nc1cccc(Br)c1", "note": "(configuration not stated)", "max activation": "inactive: -11.9%"}
